Bioassay records deposited in PubChem BioAssay by National Center for Advancing Translational Sciences (NCATS).
An excerpt weighted towards active compounds, which were near 0.34% of everything screened.
Rango dissoc inh – qHTS Assay for Inhibitors of RanGTP induced Rango (Ran-regulated importin-beta cargo) - Importin beta complex dissociation. Biochemical FRET Rango-importin beta, RanGTP-induced dissociation. 340,000 compounds, 0.071% hits. Snurportin-1 (Homo sapiens) + GTP-binding nuclear protein Ran (Homo sapiens) + Importin …. Potency, µM (top dose mostly 46.1 µM), for the others: top-dose activity change, negative = inhibition. AID 540253, 2011; calls by dose curve; further: % of control where 0% means no effect; nearly all actives have a fitted effect of over 45% in size
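Recombinant Rango FRET biosensor (EYFP–snurportin 1 IBB–cerulean CFP10) at 0.1 uM premixed with 0.25 uM importin beta in PBS, 1 mM DTT, 0.02% Tween-20, 0.1% BSA. Compound added 5 min; RanGTP-RCC1 (0.6 uM Ran, 2 mM GTP, 0.2 uM RCC1) then triggers release, read at 45 min.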
Rango complex inh – qHTS Assay for Inhibitors of Rango (Ran-regulated importin-beta cargo) - Importin beta complex formation. Importin subunit beta-1 (Homo sapiens), Q14974. Rango CFP/YFP FRET sensor + importin beta, 45 min. Potency, µM (titrated, usually from 92.2 µM), for inactives: top-dose inhibition of complex formation. 340,000 compounds, 0.031% hits; calls by dose curve;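 further: 0% = DMSO wells and 100% = buffer wells lacking importin beta; nearly all actives have a fitted effect of over 15% in size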
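Inhibition scored from the CFP 486 nm/YFP 530 nm FRET ratio 45 min after adding 0.125 microM importin beta to 50 nM Rango biosensor preincubated 5 min with compound (room temperature, PBS with DTT, Tween-20, BSA). No-importin wells as positive control.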
Vif-APOBEC3F blk – qHTS for Inhibitors of Vif-A3F Interactions: qHTS | AID 602313, 2012 | Potency, µM (series often up to 46.1 µM), for inactives: at the highest dose activity, negative = active | 390,000 compounds, 0.2% hits | HeLa A3F-eYFP + Vif (tagged APOBEC3F with the HIV-1 protein that degrades it), YFP fluorescence increase; further: % of control where 0% means no effect; nearly all actives have a fitted effect of over 65% in size
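HeLa cells stably expressing A3F-eYFP plus Vif, plated and incubated overnight at 37 deg C, then exposed to compounds overnight at 37 deg C. Blocked degradation read as raised yellow fluorescence (Ex 488/Em 500-530).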
Vif-A3G inh – qHTS for Inhibitors of Vif-A3G Interactions: qHTS | DNA dC->dU-editing enzyme APOBEC-3G (Homo sapiens), Q9HC16 | HeLa A3G-eYFP + Vif (tagged APOBEC3G with the HIV-1 protein that degrades it), YFP fluorescence, overnight | Potency, µM (doses to about 46.1 µM), for the others: at the top dose activity, negative = active, hits mostly inhibitors | 410,000 compounds, 0.076% hits; further: on the % scale 0 is the no-effect control and ±100 the full control effect; nearly all actives have a fitted effect of over 60% in size
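HeLa cells stably expressing Vif and C-terminally eYFP-tagged A3G, seeded overnight at 37 deg C, then exposed to compound by pintool overnight at 37 deg C. Rise in yellow fluorescence (Ex 488/Em 500-530, Acumen) marks blocked Vif-driven A3G degradation.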
ASM inhibitor – Inhibitors of Secretory Acid Sphingomyelinase (S-ASM): qHTS. Sphingomyelin phosphodiesterase (Homo sapiens), P17405. placental ASM, HMU-PC fluorogenic substrate, 60 min. Potency, µM (highest dose often 57.5 µM), for inactives: at the highest dose activity change, negative = inhibition, hits mostly inhibitors. 340,000 compounds, 0.006% hits
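qHTS format. ASM enzyme prepared from human placenta hydrolyses the fluorogenic substrate HMU-PC0 (9 uM final) over 60 min at 37 °C after a 10 min compound preincubation.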
Eya2 inh – qHTS Assay for Inhibitors of the Phosphatase Activity of Eya2 | 330,000 compounds, 0.006% hits | Potency, µM (top dose mostly 76.9 µM), for the others: top-dose activity, negative = inhibition, usual class: inhibitors | Protein phosphatase EYA2 (Homo sapiens), O00167 | recombinant Eya2, OMFP fluorescence dephosphorylation (OMFP is methylfluorescein phosphate) | AID 488837, 2010; further: on the % scale 0 is the no-effect control and ±100 the full control effect
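Eya2 protein (added as 0.2 uM solution) was preincubated with compound for 10 min at ambient temperature in 50 mM HEPES pH 7.5, 50 mM NaCl, 5 uM MgCl2, 0.05% BSA, 1 mM DTT. OMFP (added at 50 uM) then reacted 10 min; fluorescence read at 485/525 nm.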
* hit, by the source's call. Unless noted, the call rests on the fitted dose curve; in most records, active means well fitted curve in the direction sought with a large enough effect; inconclusive means small, poorly fitted or top-dose-only effect, or another doubt; inactive means no such curve, though single readings can be large; an effect the other way counts as inactive or inconclusive. Potency means the concentration at half of the fitted maximal effect.

Protein sequences, listed by entry. Tags and fused reporters are not part of them. Residues count along the entry.
Importin subunit beta-1 (Homo sapiens), Q14974, UniProt Q14974, whole entry, looked up: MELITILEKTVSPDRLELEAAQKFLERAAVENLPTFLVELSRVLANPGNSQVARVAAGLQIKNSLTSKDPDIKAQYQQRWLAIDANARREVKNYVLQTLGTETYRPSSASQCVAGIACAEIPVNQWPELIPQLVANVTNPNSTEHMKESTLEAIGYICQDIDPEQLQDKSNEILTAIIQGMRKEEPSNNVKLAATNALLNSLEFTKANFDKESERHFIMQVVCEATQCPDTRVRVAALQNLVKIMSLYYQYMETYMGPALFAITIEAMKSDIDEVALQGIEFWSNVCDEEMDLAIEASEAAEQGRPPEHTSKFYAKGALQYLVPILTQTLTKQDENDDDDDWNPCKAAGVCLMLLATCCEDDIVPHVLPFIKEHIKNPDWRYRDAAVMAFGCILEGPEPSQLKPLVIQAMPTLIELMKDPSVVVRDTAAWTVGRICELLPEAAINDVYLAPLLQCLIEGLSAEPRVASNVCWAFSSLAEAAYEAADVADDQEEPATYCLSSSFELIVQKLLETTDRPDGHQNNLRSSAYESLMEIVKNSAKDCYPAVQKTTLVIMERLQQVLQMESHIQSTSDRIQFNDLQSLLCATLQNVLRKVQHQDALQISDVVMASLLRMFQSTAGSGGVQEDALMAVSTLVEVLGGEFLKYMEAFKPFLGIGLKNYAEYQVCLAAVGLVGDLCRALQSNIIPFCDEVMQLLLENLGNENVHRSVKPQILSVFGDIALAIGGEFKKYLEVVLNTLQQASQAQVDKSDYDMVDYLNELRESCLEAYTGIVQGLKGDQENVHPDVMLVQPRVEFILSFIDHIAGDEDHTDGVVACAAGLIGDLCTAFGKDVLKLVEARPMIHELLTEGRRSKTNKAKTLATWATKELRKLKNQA
Sphingomyelin phosphodiesterase (Homo sapiens), P17405, UniProt P17405, 47-631 limits assumed: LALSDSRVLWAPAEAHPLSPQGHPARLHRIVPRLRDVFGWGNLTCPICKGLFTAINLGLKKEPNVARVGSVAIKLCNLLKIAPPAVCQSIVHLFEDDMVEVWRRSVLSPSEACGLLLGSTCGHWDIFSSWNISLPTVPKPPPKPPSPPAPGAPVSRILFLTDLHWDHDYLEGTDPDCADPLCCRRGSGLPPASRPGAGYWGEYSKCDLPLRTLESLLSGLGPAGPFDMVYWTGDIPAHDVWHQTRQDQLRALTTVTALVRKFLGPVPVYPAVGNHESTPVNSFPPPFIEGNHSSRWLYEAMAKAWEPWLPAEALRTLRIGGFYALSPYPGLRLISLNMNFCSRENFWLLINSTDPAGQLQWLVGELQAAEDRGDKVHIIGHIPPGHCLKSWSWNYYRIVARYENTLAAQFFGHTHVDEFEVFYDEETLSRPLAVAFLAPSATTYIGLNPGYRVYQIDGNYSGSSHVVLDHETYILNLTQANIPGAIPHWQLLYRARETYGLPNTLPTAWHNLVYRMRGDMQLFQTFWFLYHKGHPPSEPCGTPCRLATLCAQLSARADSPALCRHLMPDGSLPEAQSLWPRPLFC

`Cc1ccc(/C=C/C(=O)c2ccccc(=O)c2O)c(C)c1` gave Rango dissoc inh 8.2µM*, Rango complex inh inconclusive, Vif-APOBEC3F blk -17%, Vif-A3G inh -23%, ASM inhibitor -5% and Eya2 inh -1%.
CCN(CC)c1ccc2cc(-c3nc(-c4ccccc4)no3)c(=O)oc2c1 was read as Vif-APOBEC3F blk inconclusive and Vif-A3G inh -34%.
CCN(CC)c1ccc2cc(-c3nc(-c4cc5ccccc5oc4=O)cs3)c(=O)oc2c1 was read as Rango dissoc inh inconclusive, Rango complex inh inconclusive, Vif-APOBEC3F blk inactive, Vif-A3G inh 7.1µM* and ASM inhibitor 29%.
Screening COc1cc(OC)c(/C=C/c2c3ccccc3cc[n+]2C)c(OC)c1 returned Vif-A3G inh -4%.
For O=Cc1cccc(C=O)c1 the results were Vif-A3G inh 1%.
N#Cc1cc2ccccc2nc1SCC(=O)Nc1ccccc1N1CCOCC1 was read as Rango dissoc inh -16%, Rango complex inh -1%, Vif-APOBEC3F blk 25µM*, Vif-A3G inh inconclusive, ASM inhibitor -2% and Eya2 inh 11%.
Cc1cccc2cc(C#N)c(SCC(=O)Nc3ccccc3N3CCOCC3)nc12 was read as Rango dissoc inh -8%, Rango complex inh -2%, Vif-APOBEC3F blk -12%, Vif-A3G inh -11%, ASM inhibitor -1% and Eya2 inh -5%.
Screening COc1ccc(C(NC(=O)c2cccnc2)c2cc(Cl)c3cccnc3c2O)cc1OC (stereo unspecified) returned Rango dissoc inh inconclusive, Rango complex inh 37µM*, Vif-APOBEC3F blk -3%, Vif-A3G inh -12%, ASM inhibitor -5% and Eya2 inh 4%.
`CC(=O)NC(c1cc(Cl)c2cccnc2c1O)C(C)C` (stereo unspecified) gave Rango dissoc inh -1%, Rango complex inh -1%, Vif-APOBEC3F blk 8.9µM*, Vif-A3G inh -6%, ASM inhibitor 0% and Eya2 inh -13%.
For CC(=O)NC(c1cc(Cl)c2cccnc2c1O)C1CC1 (stereo unspecified) the results were Rango dissoc inh 21%, Rango complex inh 0%, Vif-APOBEC3F blk inconclusive, Vif-A3G inh 5µM*, ASM inhibitor 10% and Eya2 inh 4%.
`CC(=O)NC(c1cc(F)c2cccnc2c1O)C(C)C` (stereo unspecified) gave Eya2 inh -1%.
`CCCCOC(=O)c1ccc(NC(=O)c2ccc3c(c2)CCN3S(C)(=O)=O)cc1` gave Vif-APOBEC3F blk -4% and Vif-A3G inh 2%.
CCCCN(CCCC)c1ccc(Cn2ccc3ccccc32)cc1 was read as Vif-A3G inh -10%.
`O=C1CCC[C@@H]2CC(N(Cc3cc4ccccc4s3)c3ccccc3)C[C@@H]3CCN1[C@H]23` (stereo partly specified) gave Vif-A3G inh 0%.
For COc1ccc2c(/C=C/c3cc[n+](C)cc3)c[nH]c2c1 the results were Rango dissoc inh 5%, Rango complex inh inconclusive, Vif-APOBEC3F blk 13µM*, Vif-A3G inh inconclusive, ASM inhibitor -17% and Eya2 inh 27%.

Next section, starting with the last 2 of the part before.
`O=C1CCC[C@@H]2CC(N(Cc3cc4ccccc4s3)c3ccccc3)C[C@@H]3CCN1[C@H]23` (stereo partly specified) gave Vif-A3G inh 0%.
For COc1ccc2c(/C=C/c3cc[n+](C)cc3)c[nH]c2c1 the results were Rango dissoc inh 5%, Rango complex inh inconclusive, Vif-APOBEC3F blk 13µM*, Vif-A3G inh inconclusive, ASM inhibitor -17% and Eya2 inh 27%.
`CC[n+]1ccc(/C=C/c2c[nH]c3ccccc23)cc1` gave Rango dissoc inh inconclusive, Rango complex inh inconclusive, Vif-APOBEC3F blk 7.1µM*, Vif-A3G inh 5µM*, ASM inhibitor -14% and Eya2 inh 15%.
Cc1ccc2[nH]cc(/C=C/c3cc[n+](C)cc3)c2c1 was read as Rango dissoc inh inconclusive, Rango complex inh inconclusive, Vif-APOBEC3F blk inconclusive, Vif-A3G inh inconclusive, ASM inhibitor -25% and Eya2 inh 32%.
Screening CCCCCCC[n+]1ccc(/C=C/c2c[nH]c3ccccc23)cc1 returned Vif-A3G inh 8%.
O=[N+]([O-])/C=C\c1ccc(N2CCCC2)c(F)c1 was read as Rango dissoc inh 9%, Rango complex inh 0%, Vif-APOBEC3F blk 25µM*, Vif-A3G inh inconclusive, ASM inhibitor -4% and Eya2 inh 14%.
O=Cc1ccc(N2CCCC2)c([N+](=O)[O-])c1 was read as Rango dissoc inh -15%, Rango complex inh 4%, Vif-APOBEC3F blk inconclusive, Vif-A3G inh 0%, ASM inhibitor -2% and Eya2 inh -6%.
`COC(=O)Cn1c(C)c(/C=C/c2cc[n+](C)cc2)c2ccccc21` gave Rango dissoc inh inconclusive, Rango complex inh inconclusive, Vif-APOBEC3F blk 11µM*, Vif-A3G inh inconclusive, ASM inhibitor -27% and Eya2 inh 32%.
COC(=O)Cn1cc(/C=C/c2cc[n+](C)cc2)c2ccccc21 was read as Rango dissoc inh inconclusive, Rango complex inh inconclusive, Vif-APOBEC3F blk inconclusive, Vif-A3G inh -25%, ASM inhibitor -1% and Eya2 inh inconclusive.
Screening Cc1cc(=O)[nH]c2ccc(O)cc12 returned Vif-A3G inh -4%.
CC[n+]1ccc(/C=C2\Sc3ccccc3N2CCCS(=O)(=O)[O-])c2ccccc21 was read as Rango dissoc inh 6%, Rango complex inh 5%, Vif-APOBEC3F blk 3.5µM*, Vif-A3G inh inconclusive, ASM inhibitor -1% and Eya2 inh 1%.
Screening C[n+]1ccccc1/C=C1\Sc2ccccc2N1CCO returned Rango dissoc inh -28%, Rango complex inh -3%, Vif-APOBEC3F blk -12%, Vif-A3G inh -15%, ASM inhibitor -6% and Eya2 inh -3%.
C[n+]1cccc(Br)c1 was read as Vif-A3G inh 2%.
O=C(CN1c2cccc3cccc(c23)S1(=O)=O)Nc1ccc(S(=O)(=O)N2CCOCC2)cc1 was read as Rango dissoc inh -8%, Rango complex inh -1%, Vif-APOBEC3F blk 22µM*, Vif-A3G inh -5% and Eya2 inh 4%.
For O=C(NCCO)N1c2ccccc2Sc2ccccc21 the results were Rango dissoc inh 2%, Rango complex inh 0%, Vif-APOBEC3F blk -14%, Vif-A3G inh 0%, ASM inhibitor 1% and Eya2 inh 16%.

By substructure: those above containing an aryl thioether with sulfur outside any ring.
N#Cc1cc2ccccc2nc1SCC(=O)Nc1ccccc1N1CCOCC1 was read as Rango dissoc inh -16%, Rango complex inh -1%, Vif-APOBEC3F blk 25µM*, Vif-A3G inh inconclusive, ASM inhibitor -2% and Eya2 inh 11%.
Cc1cccc2cc(C#N)c(SCC(=O)Nc3ccccc3N3CCOCC3)nc12 was read as Rango dissoc inh -8%, Rango complex inh -2%, Vif-APOBEC3F blk -12%, Vif-A3G inh -11%, ASM inhibitor -1% and Eya2 inh -5%.
